Laboratory results taken from EP4585599A1, “NITROGEN-CONTAINING FUSED RING COMPOUND, INTERMEDIATE THEREOF, PREPARATION METHOD THEREFOR AND USE THEREOF” (Hangzhou Synrx Therapeutics Biomedical Technology Co., Ltd., priority 2022, dated 2024).

By UniProt entry, the sequences of proteins in these tests, tags left out. Residues count along the entry.
UniProt O75417, 102-554 limits assumed: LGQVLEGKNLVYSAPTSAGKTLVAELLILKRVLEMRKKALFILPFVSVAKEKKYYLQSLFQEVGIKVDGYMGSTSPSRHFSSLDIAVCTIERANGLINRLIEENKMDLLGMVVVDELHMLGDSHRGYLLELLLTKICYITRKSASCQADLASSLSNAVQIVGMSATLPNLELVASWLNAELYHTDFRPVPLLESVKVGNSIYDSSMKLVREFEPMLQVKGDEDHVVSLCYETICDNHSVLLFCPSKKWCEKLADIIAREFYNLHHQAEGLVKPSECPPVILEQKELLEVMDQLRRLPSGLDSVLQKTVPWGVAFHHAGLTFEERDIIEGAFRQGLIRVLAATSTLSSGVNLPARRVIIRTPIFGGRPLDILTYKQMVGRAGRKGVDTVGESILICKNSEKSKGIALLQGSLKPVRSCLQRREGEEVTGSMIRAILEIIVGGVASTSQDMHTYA

Molecular target: helicase domain of the Pol θ protein (Homo sapiens, UniProt O75417)
Test: Biochemical Activity Assay (ADP Glo Assay) of Pol θ inhibitor, ATPase activity
Conditions: read-out: Biochemical assay IC50, ssDNA substrate, tested form: free base

Row | SMILES | IC50
1 | COc1cnc(Cl)cc1-c1cc(C)ncc1C(=O)Nc1nc2ccc(N3[C@@H]4CC[C@H]3C[C@H](O)C4)nc2s1 | 46.4 nM
2 | COc1cnc(Cl)cc1-c1cc(C)ncc1C(=O)Nc1nc2ccc(N3[C@@H]4CC[C@H]3C[C@@H](O)C4)nc2s1 | 49.4 nM
